Experimental data: patent US8937067B2, “Activators of human pyruvate kinase” (The United States of America, as represented by the …, priority 2008, dated 2015)

Sequences of proteins named here, by UniProt entry; tags and fusion partners are left off.
UniProt P14618, whole entry: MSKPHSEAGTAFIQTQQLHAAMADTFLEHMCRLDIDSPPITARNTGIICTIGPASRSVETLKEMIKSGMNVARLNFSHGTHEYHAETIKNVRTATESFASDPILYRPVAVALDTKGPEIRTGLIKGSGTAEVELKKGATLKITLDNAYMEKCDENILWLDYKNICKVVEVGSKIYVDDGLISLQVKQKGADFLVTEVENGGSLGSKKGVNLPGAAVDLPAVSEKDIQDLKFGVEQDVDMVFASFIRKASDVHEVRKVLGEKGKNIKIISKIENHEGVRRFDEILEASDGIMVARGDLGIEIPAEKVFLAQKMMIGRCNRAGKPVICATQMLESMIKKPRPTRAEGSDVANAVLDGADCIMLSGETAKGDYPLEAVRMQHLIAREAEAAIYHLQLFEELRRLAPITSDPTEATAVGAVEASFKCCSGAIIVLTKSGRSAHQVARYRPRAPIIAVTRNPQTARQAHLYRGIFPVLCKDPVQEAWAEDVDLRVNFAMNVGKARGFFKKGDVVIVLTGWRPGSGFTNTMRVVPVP

Molecular target: hPK-M2 (Homo sapiens, UniProt P14618)
Assay: Fluorescent pyruvate kinase-lactate dehydrogenase (LDH) coupled secondary assay
Format: biochemical
Details: tables
Protocol: Fluorescent Pyruvate Kinase-Lactate Dehydrogenase Coupled Secondary Assay.
Plates were immediately placed in ViewLux (Perkin Elmer) and NADH fluorescence was determined at 30 second exposure intervals for between 3 and 6 minutes. Data were normalized to the uninhibited and EC100 activation using known activators such as fructose-1,6-bis-phosphate. […] Data was collected on the Perkin Elmer Viewlux.

Question: `Nc1cccc(S(=O)(=O)N2CCCN(S(=O)(=O)c3ccc4c(c3)OCCO4)CC2)c1` [Compound 124] was tested. Which AC50 did it give?
Answer: Its AC50 is 91.9 nM.
